System: Ba/F3 ErbB2 A775_G776insYVMA
Experiment: ErbB2 mutant cell inhibition test (CTG, 72 hours)
Assay type: cell-based
Conditions: Ba/F3 ErbB2 A775_G776insYVMA mutant cell line
Experimental: Cells were cultured, harvested during their logarithmic growth phase, and counted using a platelet counter. Cell viability was verified to be above 90% by trypan blue exclusion assay. After in vitro culture, 2×10^6 cells were obtained. The cell suspension was aliquoted into a 96-well plate at 1×10^3 cells per well (90 μL/well), and incubated overnight under conditions of 37° C., 5% CO2, and 95% humidity. A 10× drug solution was prepared, with a maximum concentration of 10 μM for the assay, and serially diluted 3-fold to nine concentrations. 10 μL of the drug solution was added to each well of the 96-well plate inoculated with the cells, and three duplicate wells were set for each drug concentration. The 96-well plate, now containing the drug-treated cells, was cultured under conditions of 37° C., 5% CO2, and 95% humidity for an additional 72 hours before CTG analysis was performed.

With `CS(=O)(=O)CCNCc1ccc(-c2ccc3ncnc(Nc4ccc(OCc5cccc(F)c5)c(Cl)c4)c3c2)o1` [Lapatinib, reference compound] the “Inhibitory activity on cell proliferation (in words)” value was “good inhibitory activity”.
